Protein sequences, listed by entry. Tags and fused reporters are not part of them.
UniProt P38398, whole entry: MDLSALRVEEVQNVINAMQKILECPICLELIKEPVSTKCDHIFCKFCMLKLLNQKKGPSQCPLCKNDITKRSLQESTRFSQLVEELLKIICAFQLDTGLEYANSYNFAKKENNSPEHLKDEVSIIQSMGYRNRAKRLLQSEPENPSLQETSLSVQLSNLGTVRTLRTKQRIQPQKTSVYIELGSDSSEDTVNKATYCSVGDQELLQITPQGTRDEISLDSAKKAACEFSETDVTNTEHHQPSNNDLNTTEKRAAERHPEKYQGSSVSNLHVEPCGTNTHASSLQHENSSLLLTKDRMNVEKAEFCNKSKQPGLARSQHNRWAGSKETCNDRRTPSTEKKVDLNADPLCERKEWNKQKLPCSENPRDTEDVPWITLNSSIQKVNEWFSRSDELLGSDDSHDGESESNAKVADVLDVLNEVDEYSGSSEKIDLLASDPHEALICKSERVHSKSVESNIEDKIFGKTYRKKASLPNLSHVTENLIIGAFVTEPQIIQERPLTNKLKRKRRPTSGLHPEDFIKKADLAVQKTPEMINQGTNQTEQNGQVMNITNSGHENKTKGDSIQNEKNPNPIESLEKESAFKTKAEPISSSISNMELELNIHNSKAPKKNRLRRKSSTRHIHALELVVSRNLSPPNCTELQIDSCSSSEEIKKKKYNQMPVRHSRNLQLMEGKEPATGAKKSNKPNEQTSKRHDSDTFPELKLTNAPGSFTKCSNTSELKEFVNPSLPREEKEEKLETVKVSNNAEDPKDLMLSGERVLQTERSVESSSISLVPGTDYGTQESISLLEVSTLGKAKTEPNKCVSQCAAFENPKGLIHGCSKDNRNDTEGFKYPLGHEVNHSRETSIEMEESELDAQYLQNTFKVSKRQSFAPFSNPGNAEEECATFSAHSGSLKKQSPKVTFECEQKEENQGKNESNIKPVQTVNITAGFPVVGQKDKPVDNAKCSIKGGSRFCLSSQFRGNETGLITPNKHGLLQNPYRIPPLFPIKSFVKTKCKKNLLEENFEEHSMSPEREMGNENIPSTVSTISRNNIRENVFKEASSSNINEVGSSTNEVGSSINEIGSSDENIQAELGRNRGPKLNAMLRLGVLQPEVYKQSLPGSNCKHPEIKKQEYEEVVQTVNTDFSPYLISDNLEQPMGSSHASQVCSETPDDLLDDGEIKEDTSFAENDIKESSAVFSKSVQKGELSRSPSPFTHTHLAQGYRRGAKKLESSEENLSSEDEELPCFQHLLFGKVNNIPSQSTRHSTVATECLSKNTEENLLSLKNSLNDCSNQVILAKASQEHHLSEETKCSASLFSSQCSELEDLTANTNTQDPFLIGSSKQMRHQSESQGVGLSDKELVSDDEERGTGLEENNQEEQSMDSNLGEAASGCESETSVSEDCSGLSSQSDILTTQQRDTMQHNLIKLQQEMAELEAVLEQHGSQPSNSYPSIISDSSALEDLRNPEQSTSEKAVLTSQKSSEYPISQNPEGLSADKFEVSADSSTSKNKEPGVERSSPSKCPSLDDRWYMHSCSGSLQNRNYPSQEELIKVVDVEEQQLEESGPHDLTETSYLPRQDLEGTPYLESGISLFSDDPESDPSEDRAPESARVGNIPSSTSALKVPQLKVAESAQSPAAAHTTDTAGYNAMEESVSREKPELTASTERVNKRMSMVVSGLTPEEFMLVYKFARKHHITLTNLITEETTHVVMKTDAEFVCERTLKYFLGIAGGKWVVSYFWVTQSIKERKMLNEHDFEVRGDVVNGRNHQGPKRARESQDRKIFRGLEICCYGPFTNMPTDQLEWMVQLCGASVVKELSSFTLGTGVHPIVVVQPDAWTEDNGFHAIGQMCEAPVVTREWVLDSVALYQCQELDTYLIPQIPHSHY

Only a part is listed here, and it is no random draw. The source made the active and inactive calls. The call rests on the fitted dose curve; in most records, active means well fitted inhibition curve with a large enough effect; inconclusive means small, poorly fitted or top-dose-only effect; inactive means no such curve, though single readings can be large or run the other way.
What follows are compounds tested against Breast cancer type 1 susceptibility protein (Homo sapiens) (UniProt P38398) (assay: qHTS Assay for Inhibitors of BRCT-Phosphoprotein Interaction (Red Fluorophore)). Settings: BRCT-phosphopeptide binding, red fluorescence polarization; at 76.9 µM (top of the series) unless noted.
Procedure: NIH Molecular Libraries Screening Centers Network [MLSCN]
NIH Chemical Genomics Center [NCGC]
PI Name: Natarajan, Amarnath; University of Texas
A complex of BRCT (C-terminal portion of BRCA1, MW ~35 kDa, His-tagged) and fluorescently labeled pBACH1 phosphorylated 10 aa peptide fragment of BACH1, a helicase implicated in DNA repair, is incubated with library members. Inhibitors of BRCT-pBACH1 binding are detected by a decrease in the fluorescence polarization (FP) of the fluorophore. In order to minimize the effect of fluorescence artifacts and to increase the overall robustness of the screen, the compound library members were incubated in separate reactions with rhodamine-labeled probe-protein complexes. Protein and labeled probes were supplied by Dr. Amarnath Natarajan, Department of Pharmacology and Toxicology, University of Texas Medical Branch Galveston, TX.
Assay Buffer: 16mM Na2HPO4, 4 mM NaH2PO4, 150 mM NaCl, 1 mM EDTA, 1 mM DTT, 0.02% NaN3, and 0.01% Tween 20 at pH 7.3.
Assay Controls: 100 nM TAMRA labeled decapeptide dispensed into columns 3 and 4 to generate negative control (full inhibition of
binding, -100 % activity). 100 nM labeled decapeptide/100 nM protein in columns 1, 2, 5 - 48. Titration of unlabeled decapeptide control (from 10 mM, then 1:2 dilution in duplicate) pin-transferred to column 2, rows 1 to 16. Column 1 is neutral.
Three uL of reagents were dispensed to 1536-well Greiner black solid-bottom plates. Compounds and controls (23 nL) were transferred via Kalypsys PinTool. The plates were incubated for 12 min at room temperature, and then read on ViewLux (Perkin-Elmer) High-throughput CCD imager using BODIPY for the rhodamine-labeled decapeptide probe polarization filter sets. During dispense, reagent bottles were kept submerged into 4 deg C water bath and all liquid lines were covered with aluminum foil to minimize probe and protein degradation. All screening operations were performed on a Kalypsys robotic system (Kalypsys, Inc., San Diego, CA) containing one RX-130 and two RX-90 anthropomorphic robotic arms. The timing and order of assay plates passing through the screening system were adjusted such that each compound library plate was assayed against the fluorescein- and rhodamine-labeled assay systems at immediately adjacent time points.
In the case of `O=[N+]([O-])[O-].[NH4+]`, the activity change, negative = inhibition is reported as inactive: -1.37%.
`COc1ccccc1OP(C)(=O)Nc1ccc(C)cc1` (configuration not stated) was tested, and the activity change, negative = inhibition was inactive: 0.68%.
In the case of `Cc1ccc(NP(C)(=O)Oc2ccccc2)c(C)c1` (configuration not stated), the activity change, negative = inhibition is reported as inactive: -2.41%.
In the case of `N1=C(c2nnc(-c3nn[nH]n3)nn2)NNN1`, the activity change, negative = inhibition is reported as inactive: -4.02% [at 15.4 µM].
In the case of `CP(=S)(Nn1cnnc1)Oc1ccccc1` (configuration not stated), the activity change, negative = inhibition is reported as inactive: -1.24%.
In the case of `CP(=O)(NC(=O)Nc1ccccc1)Oc1ccccc1` (configuration not stated), the activity change, negative = inhibition is reported as inactive: 0.0306%.
With `CCOP(C)(=S)SCC(=O)NC(C)C(=O)O` (configuration not stated) the activity change, negative = inhibition was inactive: 0.548%.
`Cc1nc2ccc3ccccc3c2s1.O=[N+]([O-])c1cc([N+](=O)[O-])c(O)c([N+](=O)[O-])c1` was tested, and the activity change, negative = inhibition was inactive: -1.04%.
`O=[N+]([O-])c1cccc([N+](=O)[O-])c1` was tested, and the activity change, negative = inhibition was inactive: 0.589%.
`Cc1ccc([N+](=O)[O-])cc1[N+](=O)[O-]` was tested, and the activity change, negative = inhibition was inactive: -1.68%.
In the case of `Cc1ccc(C)c(NP(C)(=O)Oc2ccccc2)c1` (configuration not stated), the activity change, negative = inhibition is reported as inactive: -0.856%.
`CP(=O)(Nc1ccccc1F)Oc1ccccc1` (configuration not stated) was tested, and the activity change, negative = inhibition was inactive: 0.352%.
`CCC(C)(OO)OOC(C)(CC)OO` (configuration not stated) was tested, and the activity change, negative = inhibition was inactive: 0.401%.
For `Cc1cccc([N+](=O)[O-])c1[N+](=O)[O-]`, the activity change, negative = inhibition was inactive: 1.4%.
`CN(C)CCOC(=O)C(O)(c1ccccc1)C1CCCCC1` (configuration not stated) was tested, and the activity change, negative = inhibition was inactive: -2.36%.
`Cc1ccc([N+](=O)[O-])c([N+](=O)[O-])c1` was tested, and the activity change, negative = inhibition was inactive: 0.334%.
With `Cc1c([N+](=O)[O-])cccc1[N+](=O)[O-]` the activity change, negative = inhibition was inactive: 1.13%.
`CCOP(=O)(CC)OCC` was tested, and the activity change, negative = inhibition was inactive: 0.92%.
For `CCOP(C)(=S)SCC(=O)NC(C)(CC)C(=O)O` (configuration not stated), the activity change, negative = inhibition was inactive: 1.25%.
For `NNC(NN)NN.n1nc(-c2nn[nH]n2)n[nH]1`, the activity change, negative = inhibition was inactive: 1.18% [at 15.4 µM].
For `CCN(CCCl)Cc1ccccc1C`, the activity change, negative = inhibition was inactive: -0.394%.
In the case of `Cc1ccccc1NP(C)(=O)Nc1ccccc1C`, the activity change, negative = inhibition is reported as inactive: 0.481%.
In the case of `[NH4+].[O-][Cl+3]([O-])([O-])[O-]`, the activity change, negative = inhibition is reported as inactive: -0.0966%.
`CP(=O)(Nc1ccc2c(c1)OCCO2)Oc1ccccc1` (configuration not stated) was tested, and the activity change, negative = inhibition was inactive: 0.108%.
For `CP(=O)(Oc1ccccc1)N1CCOC1=O` (configuration not stated), the activity change, negative = inhibition was inactive: -1.08%.
In the case of `COc1ccccc1OP(C)(=O)Nc1c(C)n(C)n(-c2ccccc2)c1=O` (configuration not stated), the activity change, negative = inhibition is reported as inactive: -0.794%.
In the case of `OCCSCCO`, the activity change, negative = inhibition is reported as inactive: 1.24%.
In the case of `N#[O+].[C-]#N.[C-]#N.[C-]#N.[C-]#N.[C-]#N.[Fe+2].[Na+].[Na+]`, the activity change, negative = inhibition is reported as inactive: 2.23%.
In the case of `C/C1=C2N=C(/C=C3N=C(/C(C)=C4\[N-][C@@](C)([C@H]5N=C1[C@@](C)(CCC(=O)NC[C@H](C)OP(=O)([O-])O[C@@H]1[C@H](O)[C@H](n6cnc7cc(C)c(C)cc76)O[C@@H]1CO)[C@@H]5CC(N)=O)[C@](C)(CC(N)=O)[C@H]4CCC(N)=O)[C@@](C)(CC(N)=O)[C@@H]\3CCC(N)=O)C(C)(C)[C@@H]/2CCC(N)=O.[C-]#N.[Co+3]`, the activity change, negative = inhibition is reported as inactive: -0.485% [at 34.4 µM].
In the case of `COc1ccccc1OP(C)(=O)Nc1ccc(C)c(C)c1` (configuration not stated), the activity change, negative = inhibition is reported as inactive: 0.539%.
With `Cc1nc2ccc3ccccc3c2o1.O=[N+]([O-])c1cc([N+](=O)[O-])c(O)c([N+](=O)[O-])c1` the activity change, negative = inhibition was inactive: -1.93%.
With `CP(=O)(Nc1ccccn1)Oc1ccccc1` (configuration not stated) the activity change, negative = inhibition was inactive: 1.63%.
On the % scale 0 is the no-effect control and ±100 the full control effect.
